In assay [1] the target is 3',5'-cyclic-AMP phosphodiesterase 4B (Homo sapiens) (UniProt Q07343). Briefly: qHTS Assay for Inhibitors of PDE-IV (AID 607; active = well fitted activation curve with a large enough effect in the main read-out, with a control signal flat, not every such curve was filed as active; also: % of control where 0% means no effect). As to conditions: HEK293 ACTOne CNG channel cells, membrane potential fluorescence; at 22.9 µM (top of the series). Summed up:
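The readout is membrane depolarisation from a cAMP-sensing CNG channel, detected with a potential dye at ex 535/em 590. Cells were HEK293-derived (endogenous PDE-IV) at 1000 cells/well, titrated up to 22.9 uM final.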

The target in assay [2] is Guanine nucleotide-binding protein G(i) subunit alpha-1 (Homo sapiens) (UniProt P63096). The assay can be described thus: qHTS Assay for Inhibitors of RGS12 GoLoco Motif Activity (Green Fluorophore) (AID 879).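 Also: 0% = labeled peptide with Gαi1 and full inhibition = labeled peptide alone without protein; negative values mean loss of peptide binding seen as reduced polarization.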 As to conditions: Galphai1/FITC-RGS12 GoLoco peptide, fluorescence polarization; at 57.1 µM (top of the series). Summed up: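 Fluorescence polarization assay: 50 nM Gαi1 with 10 nM FITC-labeled RGS12 GoLoco peptide in 10 mM Tris pH 7.5, 150 mM NaCl, 0.1 mM GDP, 0.05% NP40, 10 min at room temperature with compound.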

Assay [3] can be described thus: qHTS Assay for Identification of Small Molecule Agonists for Thrombopoietin (TPO) Signaling Pathway (AID 917). Also: % is scaled to controls: 0 for no effect and ±100 for the full control effect. As to conditions: TPO signaling pathway reporter cells, agonist qHTS, stimulated with TPO at its EC50; at 38.5 µM (top of the series).
Assay [4] concerns the target Muscarinic acetylcholine receptor M1 (Rattus norvegicus) (UniProt P08482). The assay can be described thus: qHTS Assay for Antagonists of Acetylcholine Muscarinic M1 Receptor: Kinetic Measurement of Intracellular Calcium Response (AID 943). Also: potency is read from the fitted curve at half-maximal effect; nearly all actives have a fitted effect of over 75% in size. The following applies: M1-expressing cells, kinetic intracellular calcium fluorescence.
Assay [5] shares this target. The assay can be described thus: qHTS Assay for Antagonists of Acetylcholine Muscarinic M1 Receptor: Measurement of IP-One Response (AID 944). Also: potency is read from the fitted curve at half-maximal effect; nearly all actives have a fitted effect of over 75% in size.
Assay [6] concerns the target Pyruvate kinase PKM (Homo sapiens) (UniProt P14618). Briefly: qHTS Assay for Activators of Human Muscle Pyruvate Kinase (AID 954; active = well fitted curve in the direction sought with a large enough effect, not every such curve was filed as active;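 also: 0% = uninhibited enzyme and -100% = no enzyme or full thiadiazolimine inhibition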). The following applies: purified human PKM1 enzyme activity; at 57.5 µM (top of the series). Summed up: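 Reaction: 0.1 nM purified PKM2 with 0.5 mM phosphoenolpyruvate and 0.1 mM ADP, room temperature, 1 h. Readout: luciferase-based ATP luminescence after stop reagent. Activators judged against a 0.3 nM enzyme column.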

In assay [7] the target is Alpha-galactosidase A (Homo sapiens) (UniProt P06280). The assay can be described thus: Counterscreen for Glucocerebrosidase Inhibitors: qHTS Assay for Human alpha-Galactosidase at pH 4.5 (AID 992). Also: 0% is about no effect. The following applies: purified enzyme, fluorogenic substrate; at 76.9 µM (top of the series). Summed up:
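Concentration-response curves (0.7 nM to 77 uM final) were modeled with the Hill equation to give AC50. Reactions: 2 nM enzyme, 80 uM fluorogenic alpha-galactoside, pH 4.5 citric acid buffer, 20 min, room temperature.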

Assay [8] deals with alpha-glucosidase (Oryza sativa, rice) (UniProt Q653V4). Briefly: Counterscreen for Glucocerebrosidase Inhibitors: qHTS Assay for Rice alpha-Glucosidase at pH 5.0 (AID 997).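 Also: 0% = full activity with enzyme and -100% = basal without enzyme.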 The following applies: rice alpha-glucosidase enzyme activity; at 76.9 µM (top of the series). In a few lines:
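Rice alpha-glucosidase (4 nM final) with 400 uM 4-methylumbelliferyl-alpha-D-glucopyranoside in citrate buffer pH 5.0, 20 min at room temperature, stopped at pH 10; fluorescence 365/440 nm, compounds 0.7 nM–77 uM, AC50 from Hill fits.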

Assay [9] addresses DNA repair nuclease/redox regulator APEX1 (Homo sapiens) (UniProt P27695). The assay can be described thus: qHTS Validation Assay for Inhibitors of the Human Apurinic/apyrimidinic Endonuclease 1 (APE1) (AID 1705;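 also: TAMRA fluorescence gain over two minutes as APE1 cuts a quenched THF abasic duplex; % is scaled to controls: 0 for no effect and ±100 for the full control effect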). As to conditions: purified APE1 endonuclease activity, fluorescence, titration; at 57.1 µM (top of the series). In a few lines: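 qHTS, 1536-well. APE1 + cpd 15 min RT → 50 nM TAMRA/BHQ-2 THF-abasic dsDNA substrate → kinetic fluorescence, 3 reads/60 s; delta(read3−read1) = reaction progress. No-enzyme buffer = negative control.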

Assay [10] is described as follows: Counterscreen for APE1 Inhibitors: Fluorescent Dye Displacement Validation Assay (AID 1707).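 Also: plate controls were ThO with dsDNA and no compound for no effect and ThO without dsDNA for full effect.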 The following applies: fluorescent dye displacement from DNA; at 57.1 µM (top of the series). Summed up:
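Assay buffer: Tris-HCl pH7.5 with 50mM NaCl, 2 mM MgCl2, 0.01% Tween-20. Dye 250 nM, duplex 50 nM final. Readout: decrease in ThO endpoint fluorescence, 480 nm excitation, 540 nm emission.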

Assay [11] can be described thus: qHTS Assay for Modulators of Human Peripheral Myelin Protein 22 (PMP22) Expression/Activity (AID 1967; active = well fitted curve in the direction sought with a large enough effect in the signal ratio; the % refers to the signal ratio;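 also: 0% = untreated cells and 100% end not stated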). The following applies: Cell-based PMP22 reporter, dual-color luciferase ratio, 0% = compound-free control cells, mouse Pmp22 promoter in mouse Schwann cells; at 115 µM (top of the series). Summed up:
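Luminescence ratio of Pmp22 promoter-driven green luciferase to EF-alpha-driven red luciferase, in engineered mouse MSC80 Schwann cells, served as read-out. Compounds were incubated 24h; untreated cells defined 0% Activity; curves were classified by r2, magnitude and activity.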

Assay [12] addresses Ferritin light chain (Equus caballus) (UniProt P02791). The assay can be described thus: qHTS Validation Assay for Identification of Novel General Anesthetics (AID 2323). Also: % is scaled to controls: 0 for no effect and ±100 for the full control effect. As to conditions: horse apoferritin, anesthetic-site fluorescent probe displacement; at 76.9 µM (top of the series). In a few lines: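 Fluorescence at 535 nm (excitation 380 nm) reported loss of 1-AMA binding to horse-spleen apoferritin (10 uM) in PBS with 50% saturated 1-aminoanthracene, after 10 min room-temperature incubation with compound; values from Hill fits of normalized response.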

Assay [13] concerns the target ATP-dependent DNA helicase Q1 (Homo sapiens) (UniProt P46063). The assay can be described thus: qHTS Validation Assay for Inhibitors of RecQ-Like Dna Helicase 1 (RECQ1) (AID 2353).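 Also: plate controls were DMSO vehicle for no effect and enzyme-free control for full effect.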 The following applies: recombinant RECQ1 helicase DNA unwinding assay; at 25.6 µM (top of the series). In a few lines:
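50 nM RECQ1T1 preincubated 15 min with compound in Tris pH 8.0 buffer with MgCl2, DTT, Tween-20 and 2.5 ug/ml poly(dI-dC); started with 200 nM TAMRA/BHQ-2 forked duplex and 2 mM ATP. Unwinding read as fluorescence (525/598 nm), two reads 2 h apart.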

Assay [14] has as its target RecQ-like DNA helicase BLM (Homo sapiens) (UniProt P54132). Briefly: qHTS Validation Assay for Inhibitors of Bloom's syndrome helicase (BLM) (AID 2364).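 Also: plate controls were DMSO vehicle for no effect and enzyme-free control for full effect.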 As to conditions: BLM helicase DNA unwinding, fluorescence, in vitro; at 57.1 µM (top of the series).
A short description of assay [15]: Cytometric Cell-Based qHTS for Inhibitors of the mTORC1 Signaling Pathway in MEF (Tsc2-/-, p53-/-) Cells (AID 2660).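 Also: Tsc2 and p53 null MEFs carrying empty vector with compound for 24 h; percent of cells above a phospho-rpS6 to PI ratio cutoff in each well; plate controls were DMSO for no effect and rapamycin for full effect.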 As to conditions: mTORC1 pathway cytometry; at 38.3 µM (top of the series). Summed up: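 Cells are plated, treated with compound for 24 hrs at 37 degree Celsius, then fixed, blocked and immunostained for phospho-rpS6 Ser235/236. Propidium iodide counterstain follows. Per-well % positive cells is derived from the PI-normalized phospho-S6 signal.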

Assay [16] can be described thus: High Content Imaging Cell-Based qHTS for Inhibitors of the mTORC1 Signaling Pathway in MEF (Tsc2-/-, p53-/-) Cells (AID 2666).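 Also: percent of cells scored positive for phospho-rpS6 Ser235/236 immunostaining by imaging.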 As to conditions: at 38.3 µM (top of the series). In a few lines: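 Cells were plated, dosed with compound after 24 hrs, and incubated another 24 hrs at 37 degree Celsius. Fixed cells were immunostained for phospho-rpS6 Ser235/236 and counterstained, and the normalized signal was scored as % active cells against rapamycin and DMSO controls.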

The list shows a part of the results, in another mix than the full data. Results filed as inconclusive are left out. The source made the active and inactive calls. Unless noted, calls follow the shape of the dose curve; as a rule, active = well fitted curve in the direction sought with a large enough effect; inconclusive = small, poorly fitted or top-dose-only effect, or another doubt; inactive = no such curve, though single readings can be large; an effect the other way counts as inactive or inconclusive.

Turning to `CN(CCCl)Cc1cc(Cl)c(NC2=NCCN2)c(Cl)c1`, the activation (PDE inhibition) in assay [1] is inactive: -2.65%. Moreover, the activity, negative = inhibition in assay [2] was inactive: -19.2%. Also, the activity, positive = activation in assay [3] was inactive: -17.3%. Further, the Potency in assay [4] was active: 11.2 µM; in [5], active: 14.1 µM. The activity change, negative = inhibition is inactive: 4.65% in assay [6]; inactive: -3.54% in assay [7]; inactive: -2.28% in assay [8]; inactive: 22.4% in [9]; inactive: 1.91% in assay [10]; inactive: -9.44% in [12]. Moreover, the activity change, negative = inhibition was inactive: -1.27% in [13], inactive: 1.77% in [14] and inactive: -17.1% in [15]. Also, in assay [11], the activity change (ratio) is inactive: 19.9%. In [16], the compound was called inactive.

The record behind these values is PubChem BioAssay (NCATS).
